# Source: patent US20240025949A1, “Beta-Arrestin Effectors and Compositions and Methods of Use Thereof” (Trevena, Inc., priority 2021, published 2024)
# Assays:
# human AT1R [1] = molecular target: T1, human AT1R (Homo sapiens, UniProt P30556); experiment: IP1 accumulation assay (IP-One Tb), human AT1R; assay type: cell-based; settings: cells expressing human AT1R, inactive = EC50 greater than 10 uM
# T1 construct: ProLink (β-galactosidase enzyme-donor fragment, from the pCMV-ProLink vector)
# human AT1R [2] = molecular target: T1, human AT1R; experiment: PathHunter β-arrestin-2 recruitment assay, human AT1R; assay type: cell-based; settings: PathHunter β-arrestin HEK293 cells, inactive = EC50 greater than 10 uM
structure (smiles),measurement,setting,value
"CCCCC(=O)N(Cc1ccc(-c2ccccc2-c2nnn[nH]2)cc1)[C@H](C(=O)O)C(C)C [Valsartan, reference compound]",human AT1R IP One EC50 (M),human AT1R [1],inactive
same,human AT1R b-arrestin2 EC50 (M),human AT1R [2],inactive
